PubChem BioAssay AID624267 (The Scripps Research Institute Molecular Screening Center, 2012)
The list shows a part of the results, in another mix than the full data. Active and inactive are the calls of the source. No stated cut-off is given here; in the data, active means inhibition above about 21%; inactive means the rest.

Chains of the proteins cited; added tags and fusions are not shown.
UniProt O43353, whole entry: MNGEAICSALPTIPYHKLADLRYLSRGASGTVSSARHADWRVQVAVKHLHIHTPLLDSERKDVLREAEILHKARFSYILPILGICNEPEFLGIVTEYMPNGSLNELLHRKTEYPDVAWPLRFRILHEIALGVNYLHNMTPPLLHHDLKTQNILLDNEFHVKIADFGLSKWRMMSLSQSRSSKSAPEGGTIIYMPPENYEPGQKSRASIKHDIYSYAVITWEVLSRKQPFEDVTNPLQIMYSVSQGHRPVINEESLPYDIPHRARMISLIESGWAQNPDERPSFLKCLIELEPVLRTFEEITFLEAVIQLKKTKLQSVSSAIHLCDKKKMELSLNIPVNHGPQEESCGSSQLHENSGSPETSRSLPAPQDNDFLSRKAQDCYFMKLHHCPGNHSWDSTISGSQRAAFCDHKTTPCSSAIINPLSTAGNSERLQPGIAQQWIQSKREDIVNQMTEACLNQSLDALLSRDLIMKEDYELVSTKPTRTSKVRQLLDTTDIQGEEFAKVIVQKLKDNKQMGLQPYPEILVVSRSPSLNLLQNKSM

molecular target: Receptor-interacting serine/threonine-protein kinase 2 (Homo sapiens) (UniProt O43353); test: inhibitors of RIPK2 association with NOD2 – fluorescence, CHO cells, BLA complementation, primary screen (AID 624267); settings: CHO BLA complementation NOD2-RIPK2, CCF4 ratio; at 4.98 µM; hits give high values;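 further: 0% = vehicle only and 100% = reference blocker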

Question: `CCC(=O)N(c1ccccc1)C1(COC)CCN(CCn2nnn(CC)c2=O)CC1` was tested. Which inhibition did it give?
Answer: inactive: -0.55%

Question: For `CCC(=O)N(c1ccccc1)C1(COC)CCN(CCc2cccs2)CC1`, which inhibition is on record?
Answer: inactive: 0.93%
